In publication PMC10349072, “Distinct evolution of type I glutamine synthetase in Plasmodium and its species-specific requirement” (Nature Communications, 2023):

Target: T1, Plasmodium falciparum glutamine synthetase (rPfGS) (Plasmodium falciparum, UniProt C0H551)
T1 construct: gene PF3D7_0922600
T1 sequence (C0H551 1-543): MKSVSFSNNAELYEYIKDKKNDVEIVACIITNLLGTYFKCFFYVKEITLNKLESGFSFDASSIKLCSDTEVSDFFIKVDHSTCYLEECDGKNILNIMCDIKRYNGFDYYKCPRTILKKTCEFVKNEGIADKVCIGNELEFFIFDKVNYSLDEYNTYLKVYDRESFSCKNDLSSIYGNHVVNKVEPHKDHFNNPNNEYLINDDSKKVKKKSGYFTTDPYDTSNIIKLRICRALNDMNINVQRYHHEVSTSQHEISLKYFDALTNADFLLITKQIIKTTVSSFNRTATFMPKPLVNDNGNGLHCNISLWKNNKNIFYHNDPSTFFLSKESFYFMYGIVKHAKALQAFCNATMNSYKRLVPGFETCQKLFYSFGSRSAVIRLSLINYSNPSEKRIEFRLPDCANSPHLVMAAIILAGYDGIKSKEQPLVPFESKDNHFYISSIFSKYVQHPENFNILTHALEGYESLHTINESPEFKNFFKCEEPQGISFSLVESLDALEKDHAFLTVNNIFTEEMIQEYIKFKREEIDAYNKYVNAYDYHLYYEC
Assay: biochemical

Compound: CS(=N)(=O)CC[C@H](N)C(=O)O (stereo partly drawn) [MSO, L-Methionine sulfoximine]
- Ki: 5.64 ± 0.39 µM
